From patent US9364476B2, “Methods of treating a Bruton's Tyrosine Kinase disease or disorder” (Celgene Avilomics Research, Inc., priority 2011, dated 2016) come the findings set out here.

Sequences of proteins named here, by UniProt entry; tags and fusion partners are left off.
UniProt Q06187, whole entry, species assumed: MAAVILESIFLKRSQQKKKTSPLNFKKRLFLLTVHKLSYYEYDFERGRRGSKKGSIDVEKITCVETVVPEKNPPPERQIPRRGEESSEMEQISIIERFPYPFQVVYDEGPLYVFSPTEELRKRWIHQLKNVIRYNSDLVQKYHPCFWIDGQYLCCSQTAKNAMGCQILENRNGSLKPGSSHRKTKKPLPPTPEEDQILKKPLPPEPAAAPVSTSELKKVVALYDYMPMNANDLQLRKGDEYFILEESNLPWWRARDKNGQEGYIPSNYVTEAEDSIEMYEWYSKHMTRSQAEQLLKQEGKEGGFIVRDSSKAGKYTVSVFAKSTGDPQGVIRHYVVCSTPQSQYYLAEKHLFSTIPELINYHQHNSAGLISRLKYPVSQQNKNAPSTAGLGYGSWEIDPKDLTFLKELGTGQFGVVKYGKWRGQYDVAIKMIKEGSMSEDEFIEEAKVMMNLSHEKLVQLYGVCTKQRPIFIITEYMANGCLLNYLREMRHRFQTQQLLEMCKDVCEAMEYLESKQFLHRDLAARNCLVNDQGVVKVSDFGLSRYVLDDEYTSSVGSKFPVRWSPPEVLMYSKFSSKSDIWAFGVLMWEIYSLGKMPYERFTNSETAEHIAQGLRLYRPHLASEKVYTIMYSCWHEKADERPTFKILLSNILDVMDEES

Like-named read-outs stand apart in the source and are kept apart here.

Series [1] deals with T1, Btk (Homo sapiens, UniProt Q06187). The following applies: dose levels ≧250 mg QD.
Series [2] concerns the target T1, Btk. Put plainly: in vivo.
The conditions of series [3]: once daily 125, 250, 400, 625 and 750 mg.
For series [4], the target named is T1, Btk. Put plainly: Btk inhibition. The class given is biochemical.

In general, IC50 refers to the concentration at which inhibition is half-maximal. A high value points to weaker potency. On to `C=CC(=O)Nc1cccc(Nc2nc(Nc3ccc(OCCOC)cc3)ncc2F)c1.O=S(=O)(O)c1ccccc1` [N-(3-(5-fluoro-2-(4-(2-methoxyethoxy)phenylamino)pyrimidin-4-ylamino)phenyl)acrylamide besylate], for which the Btk occupancy result on Btk [1] is “Full Btk occupancy”. The receptor occupancy at 125 mg on Btk [2] (read-out: Btk occupancy, cohort 1 (125 mg QD), one evaluable patient, 4 hours post-dose) came to 76%; on Btk [2] (read-out: Btk occupancy, cohort 1 (125 mg QD), one evaluable patient, day 29 pre-dose), 36%. In addition, the safety and tolerability entry in series [3] was “generally safe and well-tolerated”. On Btk [4], this compound had an IC50 of under 0.5 nM.
